For 24 compounds, activation results are on record in PubChem BioAssay AID485313 (National Center for Advancing Translational Sciences (NCATS), 2010).

Structures are written as SMILES. This is a selection; strong and weak results do not stand in their true shares. Some of these compounds have results that are not shown, active ones among them. Active and inactive are the calls of the source. Calls come from the whole dose curve; as a rule, active = well fitted activation curve with a large enough effect; inconclusive = small, poorly fitted or top-dose-only effect; inactive = no such curve, though single readings can be large or run the other way.

The nature of the experiment: qHTS Assay for NPC1 Promoter Activators.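 Note: reporter is driven by a mutant NPC1 promoter; % of control where 0% means no effect; nearly all actives have a fitted effect of over 60% in size.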 The conditions noted are these: Huh7 NPC1 promoter luciferase reporter, 24 h; at 9.22 µM (top of the series).
`CN1[C@@H]2CC[C@H]1CC(OC(=O)C(O)(c1ccccc1)c1ccccc1)C2` (some centres undefined): the activation is inactive: -3.16%.

As for `O=C(NCC1(N2CCCCC2)CCCCC1)c1cc([N+](=O)[O-])ccc1Cl`, the activation is inactive: -1.37%.

As to `Cc1ccc(C(=O)NCC2(N3CCCCC3)CCCCC2)cc1`, the activation was inactive: -1.48%.

Turning to `COc1cc(SC)ccc1C(=O)NCC1(N(C)C)CCCCC1`, the activation is inactive: 2.76%.

Consider `CCN(CC)CC(C)C(C)OC(=O)C(O)(c1ccccc1)c1ccccc1` (centres undefined), for which the activation is inactive: -2.85%.

For the compound `CC(C)N1C(=O)CC2(CCN(CCOC(=O)C(O)(c3ccccc3)c3ccccc3)CC2)C1=O`, the activation is inactive: -0.205%.

As to `CN(C)c1ccc(C(=O)NCC2(N(C)C)CCCCC2)cc1`, the activation was inactive: -3.88%.

As for `CN(C)C1CCCC1OC(=O)C(O)(c1ccccc1)c1ccccc1` (centres undefined), the activation was inactive: 2.47%.

On to `Cc1ccccc1C(=O)NCC1(N2CCCCC2)CCCCC1`, for which the activation is inactive: -0.462%.

Consider `COc1ccc(C(=O)NCC2(N(C)C)CCCCC2)cc1`, for which the activation was inactive: -1.52%.

Turning to `O=C(NCC1(N2CCCCC2)CCCCC1)c1cccc(Br)c1`, the activation was inactive: -0.351%.

For the compound `CCN1CCCC(OC(=O)C2(O)c3ccccc3C=Cc3ccccc32)C1` (centres undefined), the activation was inactive: 0.0714%.

As for `Cc1cc(C(=O)NCC2(N3CCCCC3)CCCCC2)ccc1[N+](=O)[O-]`, the activation is inactive: 0.518%.

`O=C(NCC1(N2CCCCC2)CCCCC1)c1cc(F)c(F)cc1Cl`: the activation is inactive: -2.26%.

`C=CCN1CCN(CCOC(=O)C(O)(c2ccccc2)c2ccccc2)CC1`: the activation is inactive: 0.351%.

With `COc1cc(C(=O)NCC2(N(C)C)CCCCC2)c([N+](=O)[O-])cc1OC`, the activation was inactive: -2.78%.

Turning to `CN(C)C1(CNC(=O)c2ccc(Br)cc2)CCCCC1`, the activation is inactive: 2.48%.

On to `O=C(NCC1(N2CCCCC2)CCCCC1)c1cccc(Cl)c1`, for which the activation was inactive: -22.7%.

Turning to `COc1ccc(Cl)cc1C(=O)NCC1(N(C)C)CCCCC1`, the activation is inactive: 2.31%.

With `COc1cccc(C(=O)NCC2(N3CCCCC3)CCCCC2)c1`, the activation was inactive: 3.36%.

For the compound `O=C(OC1CN2CCC1CC2)C(CO)(c1ccccc1)c1ccccc1` (centres undefined), the activation is inactive: 1.23%.

For `CC(C)Oc1ccc(C(=O)NCC2(N(C)C)CCCCC2)cc1`, the activation is inactive: 4.39%.

As for `CN(C)c1cccc(C(=O)NCC2(N(C)C)CCCCC2)c1`, the activation was inactive: -1.33%.

With `COc1ccc(Br)c(C(=O)NCC2(N3CCCCC3)CCCCC2)c1`, the activation was inactive: 6.22%.
